Measured values from patent publication US6846802B2, “Macrocyclic NS3-serine protease inhibitors of hepatitis C virus comprising N-cyclic P2 moieties” (priority 2000, dated 2005).

Protein sequences, listed by entry. Tags and fused reporters are not part of them. Residues count along the entry.
UniProt P27958, 1027-1657: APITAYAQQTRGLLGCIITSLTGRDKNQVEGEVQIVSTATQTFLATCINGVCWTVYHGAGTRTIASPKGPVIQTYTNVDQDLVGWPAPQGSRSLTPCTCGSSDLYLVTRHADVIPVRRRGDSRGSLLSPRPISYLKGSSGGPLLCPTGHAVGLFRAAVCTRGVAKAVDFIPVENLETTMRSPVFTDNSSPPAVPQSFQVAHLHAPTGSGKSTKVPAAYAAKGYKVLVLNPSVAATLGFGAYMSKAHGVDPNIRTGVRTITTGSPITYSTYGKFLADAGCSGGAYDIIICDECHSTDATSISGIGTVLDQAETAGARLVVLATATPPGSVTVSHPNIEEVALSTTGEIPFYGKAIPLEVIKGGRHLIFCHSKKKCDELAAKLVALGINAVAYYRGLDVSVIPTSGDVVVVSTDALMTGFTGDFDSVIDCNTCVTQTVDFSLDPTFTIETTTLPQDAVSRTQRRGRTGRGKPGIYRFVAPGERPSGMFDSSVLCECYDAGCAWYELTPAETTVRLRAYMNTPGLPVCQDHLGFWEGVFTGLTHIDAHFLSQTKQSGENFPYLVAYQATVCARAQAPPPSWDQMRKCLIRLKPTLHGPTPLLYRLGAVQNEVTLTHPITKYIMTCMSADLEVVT
UniProt P27958, 1658-1711: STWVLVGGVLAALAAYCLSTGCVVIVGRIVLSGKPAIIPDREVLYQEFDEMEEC

Target: Recombinant heterodimeric HCV NS3/NS4A protease (strain 1a) (Hepatitis C virus genotype 1a, UniProt P27958)
Test: biochemical

SMILES | Ki [nM] | Ki (pH 6.5, read-out: Ki*) [nM]
CCCC(NC(=O)[C@@H]1C[C@@H]2CN1C(=O)[C@H](C1CCCCC1)NC(=O)Cc1cccc(c1)OCCCCO2)C(=O)C(=O)NCC(=O)N[C@H](C(=O)OC(C)(C)C)c1ccccc1 (mixture of isomers) [Compound 5] | 1 to 100 | –
CCCC(NC(=O)[C@@H]1C[C@@H]2CN1C(=O)[C@H](C1CCCCC1)NC(=O)Cc1cccc(c1)OCCO2)C(=O)C(=O)NCC(=O)N[C@H](C(=O)OC(C)(C)C)c1ccccc1 (mixture of isomers) [Compound 8] | 101 to 100000 | –
CCCC(NC(=O)[C@@H]1Cc2ccc3cc2CN1C(=O)[C@H](C1CCCCC1)NC(=O)CCCCCCO3)C(=O)C(=O)NCC(=O)N[C@H](C(=O)OC(C)(C)C)c1ccccc1 (mixture of isomers) [Compound 58] | 101 to 100000 | –
CCCC(NC(=O)C1C[C@@H]2CN1C(=O)C(C1CCCCC1)NC(=O)CCCCc1cccc(c1)S(=O)(=O)N2)C(=O)C(=O)NCC(=O)N[C@H](C(=O)OC(C)(C)C)c1ccccc1 (single isomer, unassigned) [Compound 37B] | 101 to 100000 | –
CCCC(NC(=O)[C@@H]1C[C@@H]2CN1C(=O)[C@H](C1CCCCC1)NC(=O)Cc1cccc(c1)OCCCO2)C(=O)C(=O)NCC(=O)N[C@H](C(=O)OC(C)(C)C)c1ccccc1 (some centres unmarked) [Compound 2] | 1 to 100 | –
CCCC(NC(=O)[C@@H]1C[C@@H]2CN1C(=O)[C@H](C1CCCCC1)NC(=O)Cc1cccc(c1)OCCCO2)C(=O)C(=O)NCC(=O)N[C@H](C(=O)O)c1ccccc1 (some centres unmarked) [Compound 3] | 1 to 100 | –
CCC[C@@H](NC(=O)[C@@H]1C[C@@H]2CN1C(=O)[C@H](C1CCCCC1)NC(=O)Cc1cccc(c1)OCCCCO2)C(=O)C(=O)NCC(=O)N[C@H](C(=O)N(C)C)c1ccccc1 [Compound 4A] | 101 to 100000 | –
CCC[C@H](NC(=O)[C@@H]1C[C@@H]2CN1C(=O)[C@H](C1CCCCC1)NC(=O)Cc1cccc(c1)OCCCCO2)C(=O)C(=O)NCC(=O)N[C@H](C(=O)N(C)C)c1ccccc1 [Compound 4B] | 1 to 100 | –
CCCC(NC(=O)[C@@H]1C[C@@H]2CN1C(=O)[C@H](C1CCCCC1)NC(=O)Cc1cccc(c1)OCCCCO2)C(=O)C(=O)NCC(=O)N[C@H](C(=O)O)c1ccccc1 (some centres unmarked) [Compound 6] | 1 to 100 | –
CCC[C@@H](NC(=O)[C@@H]1C[C@@H]2CN1C(=O)[C@H](C1CCCCC1)NC(=O)Cc1cccc(c1)OCCO2)C(=O)C(=O)NCC(=O)N[C@H](C(=O)N(C)C)c1ccccc1 [Compound 7A] | 101 to 100000 | –
CCCC(NC(=O)[C@@H]1C[C@@H]2CN1C(=O)[C@H](C1CCCCC1)NC(=O)Cc1cccc(c1)OCCO2)C(=O)C(=O)NCC(=O)N[C@H](C(=O)O)c1ccccc1 (some centres unmarked) [Compound 9] | 1 to 100 | –
CCC[C@@H](NC(=O)[C@@H]1C[C@@H]2CN1C(=O)[C@H](C1CCCCC1)NC(=O)Cc1cccc(c1)OCCCS2)C(=O)C(=O)NCC(=O)N[C@H](C(=O)N(C)C)c1ccccc1 [Compound 10A] | 101 to 100000 | –
CCC[C@H](NC(=O)[C@@H]1C[C@@H]2CN1C(=O)[C@H](C1CCCCC1)NC(=O)Cc1cccc(c1)OCCCS2)C(=O)C(=O)NCC(=O)N[C@H](C(=O)N(C)C)c1ccccc1 [Compound 10B] | 1 to 100 | –
CCCC(NC(=O)[C@@H]1C[C@@H]2CN1C(=O)[C@H](C1CCCCC1)NC(=O)Cc1cccc(c1)OCCCS2(=O)=O)C(=O)C(=O)NCC(=O)N[C@H](C(=O)N(C)C)c1ccccc1 (some centres unmarked) [Compound 11] | 101 to 100000 | –
CCC[C@@H](NC(=O)[C@@H]1C[C@@H]2CN1C(=O)[C@H](C(C)(C)C)NC(=O)Cc1cccc(c1)OCCCO2)C(=O)C(=O)NCC(=O)N[C@H](C(=O)N(C)C)c1ccccc1 [Compound 12A] | 101 to 100000 | –
CCC[C@H](NC(=O)[C@@H]1C[C@@H]2CN1C(=O)[C@H](C(C)(C)C)NC(=O)Cc1cccc(c1)OCCCO2)C(=O)C(=O)NCC(=O)N[C@H](C(=O)N(C)C)c1ccccc1 [Compound 12B] | 1 to 100 | –

SMILES | Ki [nM] | Ki (pH 6.5, read-out: Ki*) [nM]
CCCC[C@@H](NC(=O)[C@@H]1C[C@@H]2CN1C(=O)[C@H](C(C)(C)C)NC(=O)Cc1cccc(c1)OCCCO2)C(=O)C(=O)NCC(=O)N[C@H](C(=O)N(C)C)c1ccccc1 [Compound 13A] | 101 to 100000 | –
CCCC[C@H](NC(=O)[C@@H]1C[C@@H]2CN1C(=O)[C@H](C(C)(C)C)NC(=O)Cc1cccc(c1)OCCCO2)C(=O)C(=O)NCC(=O)N[C@H](C(=O)N(C)C)c1ccccc1 [Compound 13B] | 1 to 100 | –
CCCC(NC(=O)C1CC2CN1C(=O)[C@H](C1CCC(C(=O)OC(C)(C)C)CC1)NC(=O)Cc1cccc(c1)OCCCO2)C(=O)C(=O)NCC(=O)N[C@H](C(=O)N(C)C)c1ccccc1 (some centres unmarked) [Compound 14] | – | 1 to 100
CCCC(NC(=O)[C@@H]1C[C@@H]2CN1C(=O)C(C1CCC(C(=O)O)CC1)NC(=O)Cc1cccc(c1)OCCCO2)C(=O)C(=O)NCC(=O)N[C@H](C(=O)N(C)C)c1ccccc1 (some centres unmarked) [Compound 15] | 1 to 100 | –
CCCC(NC(=O)[C@@H]1C[C@@H]2CN1C(=O)C(C1CCC(C(=O)OC(C)(C)C)CC1)NC(=O)Cc1cccc(c1)OCCCO2)C(=O)C(=O)NCC(=O)N[C@H](C(=O)N(C)C)c1ccccc1 (some centres unmarked) [Compound 16] | 1 to 100 | –
CCCC(NC(=O)[C@@H]1C[C@@H]2CN1C(=O)[C@H](C1CCC(C(=O)O)CC1)NC(=O)Cc1cccc(c1)OCCCO2)C(=O)C(=O)NCC(=O)N[C@H](C(=O)N(C)C)c1ccccc1 (some centres unmarked) [Compound 17] | 1 to 100 | –
CCCC(NC(=O)[C@@H]1C[C@@H]2CN1C(=O)[C@H](C(C)(C)C)NC(=O)Cc1cccc(c1)OCCCO2)C(=O)C(=O)NCC(=O)N[C@H](C(=O)OC(C)(C)C)c1ccc(NS(N)(=O)=O)cc1 (some centres unmarked) [Compound 18] | 1 to 100 | –
CCCC(NC(=O)[C@@H]1C[C@@H]2CN1C(=O)[C@H](C(C)(C)C)NC(=O)Cc1cccc(c1)OCCCO2)C(=O)C(=O)NCC(=O)N[C@H](C(=O)O)c1ccc(NS(N)(=O)=O)cc1 (some centres unmarked) [Compound 19] | 1 to 100 | –
CCC[C@@H](NC(=O)[C@@H]1C[C@@H]2CN1C(=O)[C@H](C1CCCCC1)NC(=O)CCc1cccc(c1)OCCO2)C(=O)C(=O)NCC(=O)N[C@H](C(=O)N(C)C)c1ccccc1 [Compound 20A] | 101 to 100000 | –
CCC[C@H](NC(=O)[C@@H]1C[C@@H]2CN1C(=O)[C@H](C1CCCCC1)NC(=O)CCc1cccc(c1)OCCO2)C(=O)C(=O)NCC(=O)N[C@H](C(=O)N(C)C)c1ccccc1 [Compound 20B] | 1 to 100 | –
CCCC(NC(=O)[C@@H]1C[C@@H]2CN1C(=O)[C@H](C1CCCCC1)NC(=O)CCc1cccc(c1)OCCO2)C(=O)C(=O)NCC(=O)N[C@H](C(=O)OC(C)(C)C)c1ccccc1 (some centres unmarked) [Compound 21] | 101 to 100000 | –
CCCC(NC(=O)[C@@H]1C[C@@H]2CN1C(=O)[C@H](C1CCCCC1)NC(=O)CCc1cccc(c1)OCCO2)C(=O)C(=O)NCC(=O)N[C@H](C(=O)O)c1ccccc1 (some centres unmarked) [Compound 22] | 1 to 100 | –
CCCC(NC(=O)[C@@H]1C[C@@H]2CN1C(=O)[C@H](C1CCCCC1)NC(=O)Cc1cccc(c1)OCCCO2)C(=O)C(=O)NCC(=O)OCc1ccccc1 (some centres unmarked) [Compound 23] | 101 to 100000 | –
CCCC(NC(=O)[C@@H]1C[C@@H]2CN1C(=O)[C@H](C1CCCCC1)NC(=O)Cc1cccc(c1)OCCCO2)C(=O)C(=O)NCC(=O)O (some centres unmarked) [Compound 24] | 101 to 100000 | –
CCCC(NC(=O)[C@@H]1C[C@@H]2CN1C(=O)[C@H](C1CCCCC1)NC(=O)Cc1cccc(c1)OCCCO2)C(=O)C(=O)NCC(=O)NCc1ccccc1 (some centres unmarked) [Compound 25] | 101 to 100000 | –
CCCC(NC(=O)[C@@H]1C[C@@H]2CN1C(=O)[C@H](C1CCCCC1)NC(=O)Nc1cccc(c1)OCCCO2)C(=O)C(=O)NCC(=O)N[C@H](C(=O)N(C)C)c1ccccc1 (some centres unmarked) [Compound 26A] | 101 to 100000 | –

Where two headings read alike, the source gives them in different places.
